{"source": "paper PMC3157590", "about": "(Bioconjugate chemistry, 2011)", "key": {"[1]": {"details": "partition in equal volume mixture of 1-octanol and 25 mM phosphate buffer (pH = 7.4); radioactivity; mean ± SD"}, "[2]": {"details": "canine model, 2 h p.i.; cited from earlier work"}}, "data": [{"substance": "[^99mTc(HYNIC-CA-DMP757)(tricine)(TPPTS)] [DMP444]", "values": [{"measurement": "log P", "setting": "[1]", "value": "−4.02 ± 0.16"}, {"measurement": "injected dose remaining in blood (slow blood clearance)", "setting": "[2]", "value": "45 % of the injected dose"}]}]}
